## Measured affinities in a library of Ab-14 heavy chain variants

All variants were tested on one target, the spike HR2 peptide PDVDLGDISGINAS (SARS-CoV-2).

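The starting antibody came from a phage panning campaign against this peptide. Library AAYL49 holds single substitutions and randomly drawn double and triple substitutions in the CDRs. In AlphaSeq, yeast of one mating type display the scFv and yeast of the other type display the target. After mating in shaken culture at 30 °C for 16 h, diploids were selected and their barcode pairs sequenced. Read counts were normalised to the haploid input and turned into Kd by a linear fit to BCL2-family pairs of known affinity, for each replicate. The assay was run in three technical replicates.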

The variants keep the light chain, the linker and the frameworks of Ab-14 (scFv order VH, the linker GGGGSGGGGSGGGGS, VL).
VH: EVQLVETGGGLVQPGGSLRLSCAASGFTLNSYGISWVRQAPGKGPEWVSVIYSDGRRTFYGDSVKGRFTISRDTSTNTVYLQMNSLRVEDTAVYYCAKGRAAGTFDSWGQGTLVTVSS
VL: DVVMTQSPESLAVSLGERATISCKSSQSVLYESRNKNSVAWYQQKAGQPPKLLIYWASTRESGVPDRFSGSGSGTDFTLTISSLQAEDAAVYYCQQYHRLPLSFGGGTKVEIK

Changes read parent residue, position, new residue, counted from the first residue of the VH shown. Scale: log10 of Kd in nM, estimated from mating counts; low values are strong binders. Averages over replicates are reported, and they cover detected replicates only. Where no diploid with the target was found in any replicate, the entry reads "nd": below detection, most likely a poor binder, though not proof of it. The list is sorted by this average, lowest first, undetected variants last. As a blank, each scFv also met three strains without target: over library AAYL49, 15% of these pairings were detected, typically at 4.06 and seldom below 2.83. The control count says in how many pairings with the empty strains this scFv gave a signal.

"mean, log10 nM",replicates with signal,empty controls,changes
0.43,3/3,1/9,T58N/G61A/A101L
0.45,3/3,2/9,G26H/S35H/A101N
0.67,3/3,1/9,R100H/G103P/S107K
0.95,3/3,1/9,T28H/G61E/G99S
1.14,3/3,1/9,T28L/R56V/G61E
1.48,3/3,2/9,G61I/K65S/A101Q
1.75,3/3,2/9,L29M/Y52H/S53A
2.31,3/3,0/9,F59K/G61Q/F105S
2.59,3/3,0/9,D54N/R56L/A101N
2.73,1/3,0/9,L29H/D106P/S107H
2.95,2/3,0/9,G26M/G61E/R100S
2.95,3/3,5/9,N30F/R57K/S63K
2.96,1/3,0/9,L29F/G33K/K65L
3.04,3/3,2/9,N30S/Y32C/T58A
3.19,2/3,3/9,G26T/I34W/I51P
3.19,3/3,0/9,F27L/S31A/R56M
3.20,3/3,2/9,S31W/V50I/K65A
3.29,1/3,1/9,I34D/D62W/A102E
3.34,1/3,0/9,F59W/Y60P/K65G
3.38,1/3,1/9,F27V/S31M/G33K
3.45,2/3,2/9,I34N/S63M/A102P
3.59,1/3,1/9,S63V/G103Y
3.90,1/3,0/9,I51C/A102W
3.91,1/3,0/9,D54G/K65S/S107G
3.95,2/3,2/9,T28D/Y52M/Y60Q
3.97,1/3,6/9,G55F/D106H
4.14,2/3,2/9,I51N/S53M/R56W
4.18,2/3,0/9,T28E/G55Q/R100S
4.19,1/3,2/9,G55I/G61W/K65H
4.22,2/3,5/9,I51K/G55L/G103W
4.26,2/3,4/9,G26C/L29T/G61M
4.55,2/3,0/9,T28A/G33C/K65R
4.60,1/3,3/9,N30T/Y52H/F105R
4.75,2/3,4/9,F27T/T104G/S107N
4.79,1/3,3/9,L29D/G33Y
4.89,1/3,2/9,N30F/Y60G/G103L
5.01,1/3,3/9,Y32A/V50F/T104Y
5.02,1/3,3/9,Y32Q/I51L/V64K
5.28,1/3,1/9,I34T/S35N/R100D
5.29,2/3,4/9,Y32L/I34L/Y60V
5.40,1/3,3/9,S63M/R100V/G103M
5.90,1/3,3/9,I34C/D54Y/K65A
nd,0/3,0/9,F27Y/S31V/G33T
nd,0/3,1/9,Y32D/G55F/S107F
nd,0/3,0/9,S31L/D62A/A102K
nd,0/3,1/9,S35V/G99K/D106K
nd,0/3,2/9,G26F/G33E/S53I
nd,0/3,0/9,Y52V/D62W/F105Y
nd,0/3,1/9,L29K/I34F/R100I
nd,0/3,2/9,I51C/S53W
nd,0/3,2/9,G33D/G55A/S107M
nd,0/3,1/9,F27W/I51D/R56L
nd,0/3,0/9,I51Q/D54H
nd,0/3,0/9,G61M/G99R/A102M
nd,0/3,1/9,S31H/Y52Q/S107Y
nd,0/3,0/9,G55C/G61C/G103W
nd,0/3,3/9,Y52G/S53C/G99F
nd,0/3,1/9,S53N/D54E
nd,0/3,0/9,S63Q/T104G/S107F
nd,0/3,0/9,L29C/S35V/F59Q
nd,0/3,1/9,S31T/Y52K/Y60S
nd,0/3,0/9,S53Q/R57A/S63R
nd,0/3,1/9,F27N/S35M/D54S
nd,0/3,1/9,L29Y/G99F
nd,0/3,0/9,G33L/R57K/Y60G
nd,0/3,1/9,L29E/I51T/S107W
nd,0/3,0/9,G33Q/Y60R/G61A
nd,0/3,3/9,R56T/Y60N/K65D
nd,0/3,0/9,L29P/T58K/D106K
nd,0/3,0/9,I34S/S53Q/K65S
nd,0/3,0/9,I51Y/S53V/V64R
nd,0/3,0/9,S53V/R100F/F105H

Picked from the list: the 4 lowest averages where every replicate gave a value.

{"changes": "T58N/G61A/A101L", "mean, log10 nM": "0.43", "replicates with signal": "3/3", "empty controls": "1/9"}
{"changes": "G26H/S35H/A101N", "mean, log10 nM": "0.45", "replicates with signal": "3/3", "empty controls": "2/9"}
{"changes": "R100H/G103P/S107K", "mean, log10 nM": "0.67", "replicates with signal": "3/3", "empty controls": "1/9"}
{"changes": "T28H/G61E/G99S", "mean, log10 nM": "0.95", "replicates with signal": "3/3", "empty controls": "1/9"}

For reference, the parent read 0.65 as the reference entry and 4.11 (one replicate of three) as a member of this library.

Values reported by Engelhart et al. 2022, doi:10.1038/s41597-022-01779-4 (FLAb copy).